The values below are quoted from earlier work in patent publication US11525155B2, “Stabilisation of biological samples” (QIAGEN GmbH, priority 2013, dated 2022).

The chains behind the UniProt entries cited, without tags or fusion partners. Residues count along the entry.
UniProt P29466, 120-297 limits assumed: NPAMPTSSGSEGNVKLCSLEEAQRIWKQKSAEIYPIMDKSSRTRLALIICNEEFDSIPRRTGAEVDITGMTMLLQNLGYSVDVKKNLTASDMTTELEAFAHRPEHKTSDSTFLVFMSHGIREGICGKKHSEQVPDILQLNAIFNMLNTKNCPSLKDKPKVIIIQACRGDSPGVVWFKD
UniProt P29466, 317-404 limits assumed: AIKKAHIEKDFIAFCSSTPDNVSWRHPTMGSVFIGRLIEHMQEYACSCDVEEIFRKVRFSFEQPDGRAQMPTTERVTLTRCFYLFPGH

For the data set, the target named is human recombinant caspase-1 (Homo sapiens, UniProt P29466). To be noted: read-out: Ki human recombinant caspase-1; cited from earlier work.

On to `CC(=O)N[C@@H](Cc1ccc(O)cc1)C(=O)N[C@H](C(=O)N[C@@H](C)C(=O)N[C@H](C=O)CC(=O)O)C(C)C`, for which the Ki is 200 pM.
